Usually inhibition stands for the drop in the measured response relative to a control, in per cent.

The chains behind the UniProt entries cited, without tags or fusion partners.
UniProt Q00G26, whole entry, looked up: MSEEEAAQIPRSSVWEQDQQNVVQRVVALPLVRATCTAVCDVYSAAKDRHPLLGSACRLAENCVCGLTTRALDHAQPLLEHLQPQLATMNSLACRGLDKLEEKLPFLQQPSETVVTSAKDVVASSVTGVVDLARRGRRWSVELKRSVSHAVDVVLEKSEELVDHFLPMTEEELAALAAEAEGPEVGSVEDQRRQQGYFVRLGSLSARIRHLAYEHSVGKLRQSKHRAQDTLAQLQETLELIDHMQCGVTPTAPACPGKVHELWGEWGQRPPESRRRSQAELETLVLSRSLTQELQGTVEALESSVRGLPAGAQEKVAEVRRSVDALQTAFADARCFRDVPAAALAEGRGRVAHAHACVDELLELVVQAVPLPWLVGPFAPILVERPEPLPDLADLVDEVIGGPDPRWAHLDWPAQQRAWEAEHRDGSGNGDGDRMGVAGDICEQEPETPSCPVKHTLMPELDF
UniProt Q8WTS1, whole entry, looked up: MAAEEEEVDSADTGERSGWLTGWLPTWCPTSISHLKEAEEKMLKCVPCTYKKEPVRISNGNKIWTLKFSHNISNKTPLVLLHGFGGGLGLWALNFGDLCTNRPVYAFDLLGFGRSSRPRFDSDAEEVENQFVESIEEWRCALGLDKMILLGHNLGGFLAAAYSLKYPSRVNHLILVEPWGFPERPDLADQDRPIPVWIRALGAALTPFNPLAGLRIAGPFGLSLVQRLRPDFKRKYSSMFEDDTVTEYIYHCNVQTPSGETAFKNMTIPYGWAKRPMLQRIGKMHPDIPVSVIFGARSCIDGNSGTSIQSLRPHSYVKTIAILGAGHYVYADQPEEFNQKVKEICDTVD

The list shows a part of the results, in another mix than the full data. Some tests of the compounds listed are not included; inactive here does not mean inactive elsewhere. The source made the active and inactive calls.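 Rule for the calls: active = inhibition above the mean inhibition across every tested compound plus 3 SD (cut at about 22% in these data); inactive = the rest.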

The target of the test is Perilipin-5 (Homo sapiens) + 1-acylglycerol-3-phosphate O-acyltransferase ABHD5 (Homo sapiens) (UniProt Q00G26+Q8WTS1). Nature of the test: blockers of ABHD5 binding to perilipin-5 – cell lysate, split luciferase complementation, luminescence, primary screen (AID 602281).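 Note: 0% = DMSO only wells and the 100% control is not disclosed.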 As to conditions: Split G. princeps luciferase complementation, 4 h, at 4 µM, active compounds read high.
Take `O=C(NCC1(N2CCCCC2)CCCCC1)c1cccc(Br)c1`: the inhibition is inactive: 7.46%.

`CCN1CCCC(OC(=O)C2(O)c3ccccc3C=Cc3ccccc32)C1` (stereo unspecified): the inhibition is inactive: 0.96%.

In the case of `Cc1cc(C(=O)NCC2(N3CCCCC3)CCCCC2)ccc1[N+](=O)[O-]`, the inhibition was inactive: -0.78%.

On to `COc1ccc(C(=O)NCC2(N(C)C)CCCCC2)cc1`, for which the inhibition is inactive: 5.34%.

Regarding `O=C(NCC1(N2CCCCC2)CCCCC1)c1cc(F)c(F)cc1Cl`, the inhibition was inactive: 5.35%.

As for `C=CCN1CCN(CCOC(=O)C(O)(c2ccccc2)c2ccccc2)CC1`, the inhibition is inactive: 6.28%.

`CN(C)c1ccc(C(=O)NCC2(N(C)C)CCCCC2)cc1`: the inhibition is inactive: 4.98%.

Turning to `CN(C)C1CCCC1OC(=O)C(O)(c1ccccc1)c1ccccc1` (stereo unspecified), the inhibition was inactive: 1.86%.

In the case of `Cc1ccccc1C(=O)NCC1(N2CCCCC2)CCCCC1`, the inhibition was inactive: -0.81%.

With `Cc1ccc(C(=O)NCC2(N3CCCCC3)CCCCC2)cc1`, the inhibition is inactive: -1.88%.

For `CC(C)N1C(=O)CC2(CCN(CCOC(=O)C(O)(c3ccccc3)c3ccccc3)CC2)C1=O`, the inhibition is inactive: 0.8%.

`COc1cc(SC)ccc1C(=O)NCC1(N(C)C)CCCCC1`: the inhibition is inactive: 1.21%.

With `CCN(CC)CC(C)C(C)OC(=O)C(O)(c1ccccc1)c1ccccc1` (stereo unspecified), the inhibition is inactive: -0.9%.

As to `CN1[C@@H]2CC[C@H]1CC(OC(=O)C(O)(c1ccccc1)c1ccccc1)C2` (stereo partly specified), the inhibition was inactive: 1.16%.

Regarding `O=C(NCC1(N2CCCCC2)CCCCC1)c1cc([N+](=O)[O-])ccc1Cl`, the inhibition was inactive: 1.23%.

For `CN(C)c1cccc(C(=O)NCC2(N(C)C)CCCCC2)c1`, the inhibition is inactive: -4.61%.

As for `O=C(OCCN1CCCC1)C(O)(c1ccccc1)c1ccccc1`, the inhibition was inactive: 0.95%.

In the case of `CC(C)Oc1ccc(C(=O)NCC2(N(C)C)CCCCC2)cc1`, the inhibition was inactive: -0.83%.

Take `COc1ccc(Br)c(C(=O)NCC2(N3CCCCC3)CCCCC2)c1`: the inhibition was inactive: -1.41%.

`C=C(C)C#CC(O)(C(=O)OC1CCN(C)CC1)c1ccccc1` (stereo unspecified): the inhibition was inactive: 3.8%.

Take `O=C(OC1CN2CCC1CC2)C(CO)(c1ccccc1)c1ccccc1` (stereo unspecified): the inhibition was inactive: 3.08%.

On to `O=C(NCC1(N2CCCCC2)CCCCC1)c1cccc(Cl)c1`, for which the inhibition was inactive: 4.37%.

Regarding `COc1ccc(Cl)cc1C(=O)NCC1(N(C)C)CCCCC1`, the inhibition is inactive: -7.88%.

As to `COc1cccc(C(=O)NCC2(N3CCCCC3)CCCCC2)c1`, the inhibition was inactive: -0.21%.

Consider `COc1cc(C(=O)NCC2(N(C)C)CCCCC2)c([N+](=O)[O-])cc1OC`, for which the inhibition was inactive: 0.54%.

In the case of `CN(C)C1(CNC(=O)c2ccc(Br)cc2)CCCCC1`, the inhibition was inactive: 4.35%.

Values taken from PubChem BioAssay AID602281 (The Scripps Research Institute Molecular Screening Center, 2012).
